Experimental data from ChEMBL document CHEMBL1671867, “Novel polymyxin derivatives carrying only three positive charges are effective antibacterial agents” (Antimicrob Agents Chemother, 2008).

Tests used:
Type in all cases: functional
Acinetobacter baumannii [1] = assay: Antibacterial activity against Acinetobacter baumannii ATCC 19606 by Etest method in presence of […] NAB739
Acinetobacter baumannii [2] = assay: Antibacterial activity against Acinetobacter baumannii F264 by Etest method in presence of […] NAB739
Pseudomonas aeruginosa = assay: Antibacterial activity against Pseudomonas aeruginosa ATCC 27853by Etest method in presence of […] NAB739

CO[C@H]1/C=C/O[C@@]2(C)Oc3c(C)c(O)c4c(O)c(c(/C=N/N5CCN(C)CC5)c(O)c4c3C2=O)NC(=O)/C(C)=C\C=C\[C@H](C)[C@H](O)[C@@H](C)[C@@H](O)[C@@H](C)[C@H](OC(C)=O)[C@@H]1C [RIFAMPIN]
MIC (Acinetobacter baumannii [1]): 0.25 µg/mL | MIC (Acinetobacter baumannii [2]): 0.5 µg/mL | MIC (Pseudomonas aeruginosa): 32 µg/mL
